pIC50: −log10 of the molar value.
How the values were obtained:
[1] = target: PDGFRB (Homo sapiens, UniProt P09619); assay: Z'-LYTE in vitro enzyme activity assay, PDGFRB; settings: read-out: IC50 detected by Z'-LYTE, PDGFRB; 100 μM ATP, 60 minutes, room temperature
Procedure: (§1) The enzyme activity was measured by Z′-LYTE™ Detection Kinase Assay. The IC50 value of the compounds was used as an index to evaluate the inhibitory effect of the compounds on VEGFR2, FGFR1 and PDGFRB.
(§2) Recombinant human VEGFR2 and FGFR1 proteases were purchased from Life technology, PDGFRB Protease was purchased from Millipore.
(§3) Z-LYTE™ Kit Tyr1 and Tyr4 were purchased from Life technology. Multi-microplate reader, Envision (PerkinElmer) read board was used.
(§4) The test compounds were diluted 3 times with a concentration gradient, the final concentration was from 10 μM to 0.17 nM with a total of 11 concentrations, and each concentration had two parallel holes; the content of DMSO in the assay was 1%.
(§5) 40 nM PDGFRB protein kinase, 2 μM Tyr4 peptide, 100 μM ATP, 50 mM HEPES (pH 7.5), 10 mM MgCl2, 1 mM EGTA, 0.01% BRIJ-35, 2 mM MnCl2, 1 mM DTT. The detector plate was Black Proxiplate 384-Plus plate (PerkinElmer), the reaction was performed at room temperature for 60 minutes, and the reaction system was 10 μl.
(§6) The reaction was stopped by adding 5 μl of DV reagent B (1:128) to the kinase reaction solution and incubated at 23° C. for 60 minutes. The Envision instrument was used to read the plate.
(§7) The data was converted to phosphorylation rate and inhibition rate and the 4 parameter curve fitting (Model 205 in XLFIT5, iDBS) was used to get IC50 data of the compounds.

Sequences of proteins named here, by UniProt entry; tags and fusion partners are left off. Residues count along the entry.
UniProt P09619, 33-1106 limits assumed: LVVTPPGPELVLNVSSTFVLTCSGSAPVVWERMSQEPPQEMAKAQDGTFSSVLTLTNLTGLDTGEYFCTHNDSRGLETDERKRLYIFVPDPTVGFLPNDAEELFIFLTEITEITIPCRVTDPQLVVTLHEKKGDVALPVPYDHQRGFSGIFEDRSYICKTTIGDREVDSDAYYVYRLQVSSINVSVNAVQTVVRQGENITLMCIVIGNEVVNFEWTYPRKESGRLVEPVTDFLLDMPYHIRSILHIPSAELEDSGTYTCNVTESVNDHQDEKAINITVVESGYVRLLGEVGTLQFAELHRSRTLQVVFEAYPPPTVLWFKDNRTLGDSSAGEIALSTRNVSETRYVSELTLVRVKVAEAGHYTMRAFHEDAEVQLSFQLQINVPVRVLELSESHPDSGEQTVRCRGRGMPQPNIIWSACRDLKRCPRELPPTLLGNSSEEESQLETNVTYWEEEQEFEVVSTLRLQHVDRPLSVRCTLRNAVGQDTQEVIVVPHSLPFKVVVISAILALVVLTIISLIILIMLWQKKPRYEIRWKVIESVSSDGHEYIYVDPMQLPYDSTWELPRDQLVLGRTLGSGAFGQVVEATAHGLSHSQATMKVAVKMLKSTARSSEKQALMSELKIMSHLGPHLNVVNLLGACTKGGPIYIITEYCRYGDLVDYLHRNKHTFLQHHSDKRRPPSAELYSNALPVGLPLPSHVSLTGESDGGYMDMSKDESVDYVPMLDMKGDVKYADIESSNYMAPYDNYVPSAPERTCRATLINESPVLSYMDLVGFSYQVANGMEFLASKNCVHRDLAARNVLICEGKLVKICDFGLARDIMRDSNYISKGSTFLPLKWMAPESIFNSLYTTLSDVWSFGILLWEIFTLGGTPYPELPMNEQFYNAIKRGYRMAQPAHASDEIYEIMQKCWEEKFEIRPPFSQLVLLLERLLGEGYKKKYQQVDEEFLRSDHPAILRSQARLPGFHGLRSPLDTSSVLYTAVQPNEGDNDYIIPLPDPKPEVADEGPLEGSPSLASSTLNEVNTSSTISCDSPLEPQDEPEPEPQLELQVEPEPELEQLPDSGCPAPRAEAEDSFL
UniProt P11362, 22-822 limits assumed: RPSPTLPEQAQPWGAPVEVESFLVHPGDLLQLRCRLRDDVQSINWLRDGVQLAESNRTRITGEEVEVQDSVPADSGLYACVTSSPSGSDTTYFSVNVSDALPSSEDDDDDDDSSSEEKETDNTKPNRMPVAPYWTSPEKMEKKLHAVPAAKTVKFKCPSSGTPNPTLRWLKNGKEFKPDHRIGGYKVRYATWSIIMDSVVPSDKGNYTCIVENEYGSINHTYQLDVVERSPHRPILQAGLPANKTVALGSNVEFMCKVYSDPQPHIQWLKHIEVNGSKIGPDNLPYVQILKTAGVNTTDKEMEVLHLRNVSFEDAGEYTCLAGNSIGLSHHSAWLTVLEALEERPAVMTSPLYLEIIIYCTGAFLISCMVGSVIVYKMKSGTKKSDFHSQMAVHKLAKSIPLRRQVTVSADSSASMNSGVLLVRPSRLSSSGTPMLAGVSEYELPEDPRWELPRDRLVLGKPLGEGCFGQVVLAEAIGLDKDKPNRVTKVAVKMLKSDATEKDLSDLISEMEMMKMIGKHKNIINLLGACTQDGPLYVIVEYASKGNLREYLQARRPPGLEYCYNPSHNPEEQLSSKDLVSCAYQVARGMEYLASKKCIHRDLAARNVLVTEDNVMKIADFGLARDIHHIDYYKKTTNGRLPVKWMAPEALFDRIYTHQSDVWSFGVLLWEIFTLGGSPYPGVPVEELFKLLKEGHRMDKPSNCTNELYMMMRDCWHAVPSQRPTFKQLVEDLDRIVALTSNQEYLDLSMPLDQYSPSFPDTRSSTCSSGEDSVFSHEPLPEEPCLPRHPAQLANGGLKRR
UniProt P35968, 20-1356 limits assumed: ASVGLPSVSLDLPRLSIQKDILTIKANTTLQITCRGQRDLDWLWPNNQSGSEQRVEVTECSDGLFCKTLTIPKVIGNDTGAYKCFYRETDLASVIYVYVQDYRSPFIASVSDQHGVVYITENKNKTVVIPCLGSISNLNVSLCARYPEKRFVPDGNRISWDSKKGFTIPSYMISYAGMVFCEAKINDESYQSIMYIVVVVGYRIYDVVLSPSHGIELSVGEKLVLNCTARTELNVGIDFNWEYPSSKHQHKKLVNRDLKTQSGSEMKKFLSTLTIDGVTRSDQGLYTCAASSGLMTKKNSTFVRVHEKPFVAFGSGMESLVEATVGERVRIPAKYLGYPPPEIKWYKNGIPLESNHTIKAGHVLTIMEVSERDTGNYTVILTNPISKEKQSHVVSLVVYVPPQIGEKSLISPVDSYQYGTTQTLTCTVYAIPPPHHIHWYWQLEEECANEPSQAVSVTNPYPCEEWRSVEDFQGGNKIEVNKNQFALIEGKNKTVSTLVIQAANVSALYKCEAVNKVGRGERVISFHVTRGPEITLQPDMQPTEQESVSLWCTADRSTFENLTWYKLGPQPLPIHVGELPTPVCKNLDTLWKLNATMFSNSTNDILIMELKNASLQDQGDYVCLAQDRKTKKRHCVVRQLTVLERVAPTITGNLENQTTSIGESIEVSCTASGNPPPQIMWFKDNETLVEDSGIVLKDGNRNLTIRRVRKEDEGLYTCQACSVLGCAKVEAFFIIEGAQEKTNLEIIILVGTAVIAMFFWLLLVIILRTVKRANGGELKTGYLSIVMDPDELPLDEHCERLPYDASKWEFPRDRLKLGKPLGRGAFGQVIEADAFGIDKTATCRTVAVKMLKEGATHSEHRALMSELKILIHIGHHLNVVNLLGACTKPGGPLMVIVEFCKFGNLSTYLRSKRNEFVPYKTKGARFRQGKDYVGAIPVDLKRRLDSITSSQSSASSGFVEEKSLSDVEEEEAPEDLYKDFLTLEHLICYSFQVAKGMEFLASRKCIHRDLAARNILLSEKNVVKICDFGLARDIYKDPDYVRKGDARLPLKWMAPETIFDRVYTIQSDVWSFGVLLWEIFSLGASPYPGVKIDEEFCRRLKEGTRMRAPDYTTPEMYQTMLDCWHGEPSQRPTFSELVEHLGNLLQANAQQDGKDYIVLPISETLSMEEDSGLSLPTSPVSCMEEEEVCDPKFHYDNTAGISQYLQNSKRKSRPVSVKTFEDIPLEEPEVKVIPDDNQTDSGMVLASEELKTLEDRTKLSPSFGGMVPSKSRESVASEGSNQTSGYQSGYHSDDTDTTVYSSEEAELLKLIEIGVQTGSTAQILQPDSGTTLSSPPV

[2] = target: FGFR1 (Homo sapiens, UniProt P11362); assay: Z'-LYTE in vitro enzyme activity assay, FGFR1; settings: read-out: IC50 detected by Z'-LYTE, FGFR1; 25 μM ATP, 60 minutes, room temperature
Procedure: as §1, §2, §3, §4
as §5, with “1” for “40”, “FGFR1” for “PDGFRB”, “25” for “100”
as §6, §7

[3] = target: VEGFR2 (Homo sapiens, UniProt P35968); assay: Z'-LYTE in vitro enzyme activity assay, VEGFR2; settings: read-out: IC50 detected by Z'-LYTE, VEGFR2; 100 μM ATP, 60 minutes, room temperature
Procedure: as §1, §2, §3, §4
3 nM VEGFR2 protein kinase, 2 μM Tyr1 peptide, 100 μM ATP, 50 mM HEPES (pH 7.5), 10 mM MgCl2, 1 mM EGTA, 0.01% BRIJ-35. The detector plate was Black Proxiplate 384-Plus plate (PerkinElmer), the reaction was performed at room temperature for 60 minutes, and the reaction system was 10 μl.
as §6, §7

## COc1cc2nccc(Oc3ccc(Nc4c(N[C@@H](C)CO)c(=O)c4=O)c(Cl)c3)c2cc1C(N)=O
[1]
  pIC50: 6.00 to 6.70
[2]
  pIC50: 6.00 to 6.70
[3]
  pIC50: 6.00 to 6.70

## COc1cc2nccc(Oc3ccc(Nc4c(N[C@H](C)CO)c(=O)c4=O)c(Cl)c3)c2cc1C(N)=O
[1]
  pIC50: 6.00 to 6.70
[2]
  pIC50: 6.00 to 6.70
[3]
  pIC50: 6.00 to 6.70

## COc1cc2nccc(Oc3ccc(NC(=S)NC4CC4)c(Cl)c3)c2cc1-c1ncco1
[1]
  pIC50: 6.70 to 7.30
[2]
  pIC50: 6.00 to 6.70
[3]
  pIC50: 6.70 to 7.30

— patent US10654808B2, “Tyrosine kinase inhibitor and pharmaceutical composition comprising same” (GUANGDONG RAYNOVENT BIOTECH CO., LTD., priority 2015, dated 2020)
